Tests used:
[1] = target: T1, Disintegrin and metalloproteinase domain-containing protein 17 (Homo sapiens, UniProt P78536)
[2] = target: T1, Disintegrin and metalloproteinase domain-containing protein 17; remark: listed apart in the source

Amino acid sequences for entries named in this document (tags omitted). Residues count along the entry.
UniProt P78536, 215-824 limits assumed: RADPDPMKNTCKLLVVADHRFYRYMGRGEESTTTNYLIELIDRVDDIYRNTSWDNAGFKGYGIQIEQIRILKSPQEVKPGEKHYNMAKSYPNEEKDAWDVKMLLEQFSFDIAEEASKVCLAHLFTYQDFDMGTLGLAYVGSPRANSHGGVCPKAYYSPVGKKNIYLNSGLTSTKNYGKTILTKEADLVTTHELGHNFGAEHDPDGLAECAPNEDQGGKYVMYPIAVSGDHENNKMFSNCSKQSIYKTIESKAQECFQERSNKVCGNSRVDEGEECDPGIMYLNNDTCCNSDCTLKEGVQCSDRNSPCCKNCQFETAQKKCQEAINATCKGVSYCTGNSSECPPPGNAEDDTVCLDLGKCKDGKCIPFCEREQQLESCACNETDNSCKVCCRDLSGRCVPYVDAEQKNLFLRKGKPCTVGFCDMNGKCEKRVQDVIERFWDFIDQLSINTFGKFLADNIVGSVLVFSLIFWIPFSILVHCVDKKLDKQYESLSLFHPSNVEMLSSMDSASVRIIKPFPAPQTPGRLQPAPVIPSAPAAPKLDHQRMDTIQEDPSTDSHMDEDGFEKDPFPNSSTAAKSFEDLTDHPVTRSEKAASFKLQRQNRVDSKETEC

Row | Compound | IC50 [1] [nM] | further results
1 | CC[C@H](C)[C@@H]1NC(=O)[C@@H]2CSSC[C@H](NC(=O)[C@H](CCCNC(=N)N)NC(=O)[C@@H]3CSSC[C@H](NC1=O)C(=O)N[C@@H]([C@@H](C)O)C(=O)N[C@@H](CCCNC(=N)N)C(=O)NCC(=O)N[C@@H](Cc1ccccc1)C(=O)N3)C(=O)N[C@@H](Cc1c[nH]c3ccccc13)C(=O)N[C@H]1CSSC[C@H](NC(=O)[C@H](Cc3c[nH]c4ccccc34)NC(=O)[C@H](CCCNC(=N)N)NC(=O)[C@H](CCCNC(=N)N)NC(=O)[C@H](CCCNC(=N)N)NC1=O)C(=O)N[C@@H](CCCNC(=N)N)C(=O)N2 | 750 | 
2 | CC[C@H](C)[C@@H]1NC(=O)[C@@H]2CSSC[C@H](NC(=O)[C@H](CCCNC(=N)N)NC(=O)[C@@H]3CSSC[C@H](NC1=O)C(=O)N[C@@H]([C@@H](C)O)C(=O)N[C@@H](CCCNC(=N)N)C(=O)NCC(=O)N[C@@H](Cc1ccccc1)C(=O)N3)C(=O)N[C@@H](CC(C)C)C(=O)N[C@H]1CSSC[C@H](NC(=O)[C@H](Cc3c[nH]c4ccccc34)NC(=O)[C@H](CCCNC(=N)N)NC(=O)[C@H](CCCNC(=N)N)NC(=O)[C@H](CCCNC(=N)N)NC1=O)C(=O)N[C@@H](CCCNC(=N)N)C(=O)N2 | 672 | 
3 | CC[C@H](C)[C@@H]1NC(=O)[C@@H]2CSSC[C@H](NC(=O)[C@H](CCCNC(=N)N)NC(=O)[C@@H]3CSSC[C@H](NC1=O)C(=O)N[C@@H]([C@@H](C)O)C(=O)N[C@@H](CCCNC(=N)N)C(=O)NCC(=O)N[C@@H](Cc1ccccc1)C(=O)N3)C(=O)N[C@@H](CC(C)C)C(=O)N[C@H]1CSSC[C@H](NC(=O)[C@H](C(C)C)NC(=O)CNC(=O)[C@H](CCCNC(=N)N)NC(=O)[C@H](CCCNC(=N)N)NC1=O)C(=O)N[C@@H](CCCNC(=N)N)C(=O)N2 | 4450 | 
4 | C[C@@H](O)[C@@H]1NC(=O)[C@@H]2CSSC[C@H](NC(=O)[C@H](Cc3ccccc3)NC(=O)CNC(=O)[C@H](CCCNC(=N)N)NC1=O)C(=O)N[C@@H](CCCNC(=N)N)C(=O)N[C@H]1CSSC[C@H](NC(=O)[C@H](CCCNC(=N)N)NC(=O)[C@@H]3CSSC[C@H](NC(=O)[C@H](Cc4c[nH]c5ccccc45)NC1=O)C(=O)N[C@@H](CCCNC(=N)N)C(=O)N[C@@H](CCCNC(=N)N)C(=O)N[C@@H](CCCNC(=N)N)C(=O)N[C@@H](Cc1c[nH]c4ccccc14)C(=O)N3)C(=O)N[C@@H](Cc1c[nH]c3ccccc13)C(=O)N2 |  | IC50 [2]: ≥ 10000 nM
5 | N=C(N)NCCC[C@@H]1NC(=O)[C@H](CCCNC(=N)N)NC(=O)[C@@H]2CSSC[C@H](NC(=O)[C@H](Cc3c[nH]c4ccccc34)NC(=O)[C@H](CCCNC(=N)N)NC1=O)C(=O)N[C@@H](CCCNC(=N)N)C(=O)N[C@H]1CSSC[C@H](NC(=O)[C@H](CCCNC(=N)N)NC(=O)[C@@H]3CSSC[C@H](NC(=O)[C@H](Cc4c[nH]c5ccccc45)NC1=O)C(=O)N[C@@H](CCCNC(=N)N)C(=O)N[C@@H](CCCNC(=N)N)C(=O)N[C@@H](CCCNC(=N)N)C(=O)N[C@@H](Cc1c[nH]c4ccccc14)C(=O)N3)C(=O)N[C@@H](Cc1c[nH]c3ccccc13)C(=O)N2 |  | Ki [1]: 1200 nM

— ChEMBL document CHEMBL4007405 (J Med Chem, 2017)
